Measurements as given in patent publication US9890152B2 (Genentech, Inc., priority 2012, dated 2018).

Amino acid sequences for entries named in this document (tags omitted). Residues count along the entry.
UniProt P00533, 25-1210 T790M/L858R limits assumed: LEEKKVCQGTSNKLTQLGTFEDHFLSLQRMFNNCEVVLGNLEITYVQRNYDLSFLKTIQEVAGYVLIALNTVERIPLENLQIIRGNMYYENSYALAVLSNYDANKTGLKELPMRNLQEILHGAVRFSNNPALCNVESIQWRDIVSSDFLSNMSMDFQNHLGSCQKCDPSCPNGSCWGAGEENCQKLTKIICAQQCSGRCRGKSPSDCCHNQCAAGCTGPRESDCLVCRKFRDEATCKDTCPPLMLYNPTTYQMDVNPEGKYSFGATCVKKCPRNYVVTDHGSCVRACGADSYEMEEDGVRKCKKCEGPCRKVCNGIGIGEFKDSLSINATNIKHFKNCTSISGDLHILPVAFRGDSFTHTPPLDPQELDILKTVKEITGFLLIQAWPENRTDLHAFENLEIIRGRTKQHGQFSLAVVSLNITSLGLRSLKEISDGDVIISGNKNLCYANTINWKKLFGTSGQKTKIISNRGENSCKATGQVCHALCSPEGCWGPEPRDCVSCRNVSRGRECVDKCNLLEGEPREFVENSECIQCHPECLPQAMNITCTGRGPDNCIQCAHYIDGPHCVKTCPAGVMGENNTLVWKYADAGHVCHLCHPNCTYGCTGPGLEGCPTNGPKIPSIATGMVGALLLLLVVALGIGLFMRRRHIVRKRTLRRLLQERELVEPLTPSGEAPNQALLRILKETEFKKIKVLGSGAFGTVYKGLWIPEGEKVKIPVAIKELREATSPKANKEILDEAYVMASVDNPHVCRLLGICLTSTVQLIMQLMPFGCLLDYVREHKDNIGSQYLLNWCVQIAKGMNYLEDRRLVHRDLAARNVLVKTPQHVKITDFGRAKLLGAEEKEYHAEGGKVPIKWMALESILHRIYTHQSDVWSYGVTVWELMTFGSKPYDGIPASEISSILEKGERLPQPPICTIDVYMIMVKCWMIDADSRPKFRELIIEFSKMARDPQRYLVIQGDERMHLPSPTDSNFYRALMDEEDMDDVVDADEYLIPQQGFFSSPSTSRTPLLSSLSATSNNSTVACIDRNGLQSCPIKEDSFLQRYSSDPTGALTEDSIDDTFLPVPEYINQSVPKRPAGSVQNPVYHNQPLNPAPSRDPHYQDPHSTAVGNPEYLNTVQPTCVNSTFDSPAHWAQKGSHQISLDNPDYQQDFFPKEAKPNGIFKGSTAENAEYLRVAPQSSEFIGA

These molecules were tested against EGFR T790M L858R (Homo sapiens, UniProt P00533, L858R/T790M) (assay: biochemical). Settings: EGFR(T790M/L858R) Ki (μM), 5 μM ATP, 30 min, room temperature; apparent Ki (Morrison) converted by Cheng-Prusoff, Km of ATP 1.3 μM.

Structure (SMILES)	Ki
Cc1nc2cnc(Nc3ccnc(-c4ccc(C(=O)N(C)C)nc4)n3)cc2n1C(C)C [Example 578, 5-[4-(1-Isopropyl-2-methyl-1H-imidazo[4,5-c]pyridin-6-ylamino)pyrimidin-2-yl]pyridine-2-carboxylic acid dimethylamide]	0.697 µM
CCNc1ncc(-c2nccc(Nc3cc4c(cn3)nc(CO)n4C(C)C)n2)s1 [Example 579, {6-[2-(2-Ethylaminothiazol-5-yl)-pyrimidin-4-ylamino]-1-isopropyl-1H-imidazo[4,5-c]pyridin-2-yl}methanol]	0.00179 µM
Cc1nc2cnc(Nc3ccnc(NCC(C)C(N)=O)n3)cc2n1C(C)C (centres unmarked) [Example 580, 3-[4-(1-Isopropyl-2-methyl-1H-imidazo[4,5-c]pyridin-6-ylamino)pyrimidin-2-ylamino]-2-methylpropionamide]	0.126 µM
COCC(C)(CNc1nccc(Nc2cc3c(cn2)nc(C)n3C(C)C)n1)C(N)=O (centres unmarked) [Example 581, 3-[4-(1-Isopropyl-2-methyl-1H-imidazo[4,5-c]pyridin-6-ylamino)pyrimidin-2-ylamino]-2-methoxymethyl-2-methylpropionamide]	0.108 µM
Cc1nc2cnc(Nc3ccnc(NCC(C)(O)C(N)=O)n3)cc2n1C(C)C (centres unmarked) [Example 582, 2-Hydroxy-3-[4-(1-isopropyl-2-methyl-1H-imidazo[4,5-c]pyridin-6-ylamino)pyrimidin-2-ylamino]-2-methylpropionamide]	0.287 µM
Cc1nc2cnc(Nc3ccnc(NCCCC(N)=O)n3)cc2n1C(C)C [Example 583, 4-[4-(1-Isopropyl-2-methyl-imidazo[4,5-c]pyridin-6-ylamino)pyrimidin-2-ylamino]butyramide]	0.672 µM
Cc1nc2cnc(Nc3ccnc(N(C)CC(C)(C)C(N)=O)n3)cc2n1C(C)C [Example 584]	0.313 µM
Cc1nc2cnc(Nc3ccnc(-c4ccncc4)n3)cc2n1C(C)C [Example 585, (1-Isopropyl-2-methyl-1H-imidazo[4,5-c]pyridin-6-yl)-(2-pyridin-4-ylpyrimidin-4-yl)amine]	0.159 µM
Cc1nc2cnc(Nc3ccnc(-c4ccc(N)nc4)n3)cc2n1C(C)C [Example 586, [2-(6-Aminopyridin-3-yl)pyrimidin-4-yl]-(1-isopropyl-2-methyl-1H-imidazo[4,5-c]pyridin-6-yl)amine]	0.00789 µM
Cc1nc2cnc(Nc3ccnc(-c4ccc(S(C)(=O)=O)nc4)n3)cc2n1C(C)C [Example 587, (1-Isopropyl-2-methyl-1H-imidazo[4,5-c]pyridin-6-yl)-[2-(6-methanesulfonylpyridin-3-yl)pyrimidin-4-yl]amine]	1.03 µM
CNc1ncc(-c2nccc(Nc3cc4c(cn3)nc(CO)n4C(C)C)n2)s1 [Example 588, {1-Isopropyl-6-[2-(2-methylaminothiazol-5-yl)pyrimidin-4-ylamino]-1H-imidazo[4,5-c]pyridin-2-yl}methanol]	0.00135 µM
CC(=O)NC(C)(C)/C=C/c1nccc(Nc2cc3c(cn2)nc(C)n3C(C)C)n1 [Example 589, N-{(E)-3-[4-(1-Isopropyl-2-methyl-1H-imidazo[4,5-c]pyridin-6-ylamino)pyrimidin-2-yl]-1,1-dimethylallyl}acetamide]	0.201 µM
Cc1nc2cnc(Nc3ccnc(N4CCCC(F)C4)n3)cc2n1C(C)C (centres unmarked) [Example 590, [2-(3-Fluoropiperidin-1-yl)pyrimidin-4-yl]-(1-isopropyl-2-methyl-1H-imidazo[4,5-c]pyridin-6-yl)amine]	0.0519 µM
Cc1nc2cnc(Nc3ccnc(N4CCC(F)CC4)n3)cc2n1C(C)C [Example 591, [2-(4-Fluoropiperidin-1-yl)pyrimidin-4-yl]-(1-isopropyl-2-methyl-1H-imidazo[4,5-c]pyridin-6-yl)amine]	0.027 µM
Cc1nc2cnc(Nc3ccnc(N4CC[C@H](F)C4)n3)cc2n1C(C)C [Example 592, [2-((S)-3-Fluoropyrrolidin-1-yl)pyrimidin-4-yl]-(1-isopropyl-2-methyl-1H-imidazo[4,5-c]pyridin-6-yl)amine]	0.0385 µM
Cc1nc2cnc(Nc3ccnc(N4CC[C@@H](F)C4)n3)cc2n1C(C)C [Example 593, [2-((R)-3-Fluoropyrrolidin-1-yl)pyrimidin-4-yl]-(1-isopropyl-2-methyl-1H-imidazo[4,5-c]pyridin-6-yl)amine]	0.0596 µM
CC(C)n1c(CO)nc2cnc(Nc3ccnc(-c4cnc(N(C)C)s4)n3)cc21 [Example 594, {6-[2-(2-Dimethylaminothiazol-5-yl)pyrimidin-4-ylamino]-1-isopropyl-1H-imidazo[4,5-c]pyridin-2-yl}methanol]	0.00256 µM
CCc1ncc(-c2nccc(Nc3cc4c(cn3)nc(C)n4C(C)C)n2)s1 [Example 595, [2-(2-Ethylthiazol-5-yl)pyrimidin-4-yl]-(1-isopropyl-2-methyl-1H-imidazo[4,5-c]pyridin-6-yl)amine]	0.00556 µM
Cc1nc2cnc(Nc3ccnc(-n4ccnc4)n3)cc2n1C(C)C [Example 599, (2-Imidazol-1-ylpyrimidin-4-yl)-(1-isopropyl-2-methyl-1H-imidazo[4,5-c]pyridin-6-yl)amine]	0.328 µM
Cc1nc2cnc(Nc3ccnc(N4CC[C@H](O)C[C@@H]4C)n3)cc2n1C(C)C [Example 600]	0.0602 µM
Cc1nc2cnc(Nc3ccnc(N4CC[C@@H](O)C[C@H]4C)n3)cc2n1C(C)C [Example 601]	0.0296 µM
Cc1nc2cnc(Nc3ccnc(-n4ccc(N)n4)n3)cc2n1C(C)C [Example 602]	1.1 µM

Structure (SMILES)	Ki
Cc1nc2cnc(Nc3ccnc(Nc4cc[nH]n4)n3)cc2n1C(C)C [Example 603]	0.465 µM
Cc1nc2cnc(Nc3ccnc(N4CCOC[C@H]4C)n3)cc2n1C(C)C [Example 604]	0.0745 µM
Cc1nc2cnc(Nc3ccnc(N4CCOC[C@@H]4C)n3)cc2n1C(C)C [Example 605]	0.0699 µM
Cc1cn(-c2nccc(Nc3cc4c(cn3)nc(C)n4C(C)C)n2)c(C)n1 [Example 606]	0.235 µM
C[C@H](n1c([C@@H](C)O)nc2cnc(Nc3ccnc(OCC(C)(C)S(C)(=O)=O)n3)cc21)C(F)(F)F [Example 609, (R)-1-[6-[2-(2-Methanesulfonyl-2-methylpropoxy)pyrimidin-4-ylamino]-1-((S)-2,2,2-trifluoro-1-methylethyl)-1H-imidazo[4,5-c]pyridin-2-yl]ethanol]	0.00417 µM
Cc1nc2cnc(Nc3ccnc(NCC(F)(F)C(N)=O)n3)cc2n1C(C)C [Example 610, 2,2-Difluoro-3-[4-(1-isopropyl-2-methyl-1H-imidazo[4,5-c]pyridin-6-ylamino)pyrimidin-2-ylamino]propionamide]	0.0266 µM
CNc1nc(C)c(-c2nccc(Nc3cc4c(cn3)nc(C)n4C(C)C)n2)s1 [Example 611, (1-Isopropyl-2-methyl-1H-imidazo[4,5-c]pyridin-6-yl)-[2-(4-methyl-2-methylaminothiazol-5-yl)pyrimidin-4-yl]amine]	0.000792 µM
CNc1nc(C)c(-c2nccc(Nc3cc4c(cn3)nc(CO)n4C(C)C)n2)s1 [Example 612, {1-Isopropyl-6-[2-(4-methyl-2-methylaminothiazol-5-yl)pyrimidin-4-ylamino]-1H-imidazo[4,5-c]pyridin-2-yl}methanol]	0.000779 µM
CNc1ncc(-c2nccc(Nc3cc4c(cn3)nc(CO)n4C(C)C)n2)n1C [Example 613, {1-Isopropyl-6-[2-(3-methyl-2-methylamino-3H-imidazol-4-yl)pyrimidin-4-ylamino]-1H-imidazo[4,5-c]pyridin-2-yl}methanol]	0.218 µM
Cc1nc2cnc(Nc3ccnc(-c4cnc(N)s4)n3)cc2n1C(C)C [Example 614, [2-(2-Aminothiazol-5-yl)pyrimidin-4-yl]-(1-isopropyl-2-methyl-1H-imidazo[4,5-c]pyridin-6-yl)amine]	0.00327 µM
CC(C)n1c(CO)nc2cnc(Nc3ccnc(-c4cnc(N)s4)n3)cc21 [Example 615, {6-[2-(2-Aminothiazol-5-yl)pyrimidin-4-ylamino]-1-isopropyl-1H-imidazo[4,5-c]pyridin-2-yl}methanol]	0.00365 µM
CC(C)n1c(CO)nc2cnc(Nc3ccnc(C4=CCC(O)CC4)n3)cc21 (centres unmarked) [Example 624, 4-(4-((2-(hydroxymethyl)-1-isopropyl-1H-imidazo[4,5-c]pyridin-6-yl)amino)pyrimidin-2-yl)cyclohex-3-enol]	0.111 µM
Cc1nc2cnc(Nc3ccnc(-c4cn(CC5CC5)nc4Cl)n3)cc2n1C(C)C [Example 625, N-(2-(3-Chloro-1-(cyclopropylmethyl)-1H-pyrazol-4-yl)pyrimidin-4-yl)-1-isopropyl-2-methyl-1H-imidazo[4,5-c]pyridin-6-amine]	0.0251 µM
CC(n1cc(C(=O)NC2CCOCC2)c2cnc(Nc3ccnc(-c4cnn(S(=O)(=O)C5CC5)c4)n3)cc21)C(F)(F)F (centres unmarked) [Example 635, 6-(2-(1-(Cyclopropylsulfonyl)-1H-pyrazol-4-yl)pyrimidin-4-ylamino)-N-(tetrahydro-2H-pyran-4-yl)-1-(1,1,1-trifluoropropan-2-yl)-1H-pyrrolo[3,2-c]pyridine-3-carboxamide]	0.00249 µM
CC(n1cc(C(=O)NC2CCOCC2)c2cnc(Nc3ccnc(N4CCC(C)(O)CC4)n3)cc21)C(F)(F)F (centres unmarked) [Example 636, 6-(2-(4-Hydroxy-4-methylpiperidin-1-yl)pyrimidin-4-ylamino)-N-(tetrahydro-2H-pyran-4-yl)-1-(1,1,1-trifluoropropan-2-yl)-1H-pyrrolo[3,2-c]pyridine-3-carboxamide]	0.00736 µM
Cc1nc2cnc(Nc3ccnc(-c4ccc(S(C)(=O)=O)cc4)n3)cc2n1C(C)C [Example 647]	0.158 µM
Cc1nc2cnc(Nc3ccnc(N4CCC5(CC4)OCCCO5)n3)cc2n1C(C)C [Example 648]	0.0245 µM
CC(C)n1c(CO)nc2cnc(Nc3ccnc(N4C[C@@H](F)[C@@H](O)C(C)(C)C4)n3)cc21 [Example 650]	0.0153 µM
Cc1nc2cnc(Nc3ccnc(N4CCc5cn[nH]c5C4)n3)cc2n1C(C)C [Example 651]	0.0114 µM
Cc1nc2cnc(Nc3ccnc(NCC4CCS(=O)(=O)C4)n3)cc2n1C(C)C (centres unmarked) [Example 652]	0.864 µM
Cc1nc2cnc(Nc3ccnc(N4CCC5(OCCO5)C(F)C4)n3)cc2n1C(C)C (centres unmarked) [Example 653]	0.00461 µM
CC(C)n1c(CO)nc2cnc(Nc3ccnc(N4CCC5(OCCO5)C(F)C4)n3)cc21 (centres unmarked) [Example 654]	0.00524 µM
